Test [1] deals with HDAC6 human recombinant (Homo sapiens (Human), UniProt Q9UBN7). Nature of the test: HDAC enzyme activity inhibition (in vitro), HDAC6 assay. Format: biochemical. As to conditions: samples at 0.1, 1, 10, 100 and 1000 nM; 37° C. 60 minutes; fluorescence Ex 390, Em 460.
Test [2] addresses HDAC1 (Homo sapiens (Human), UniProt Q13547). In words: HDAC enzyme activity inhibition (in vitro), HDAC1 Fluorimetric Drug Discovery Assay Kit. In kind it is biochemical. As to conditions: samples at 100, 1000 and 10000 nM; 37° C. 60 minutes; fluorescence Ex 390, Em 460.

By UniProt entry, the sequences of proteins in these tests, tags left out. Where a name states a change or a piece, a line headed by the entry shows the natural chain unless it says otherwise.
UniProt Q9UBN7: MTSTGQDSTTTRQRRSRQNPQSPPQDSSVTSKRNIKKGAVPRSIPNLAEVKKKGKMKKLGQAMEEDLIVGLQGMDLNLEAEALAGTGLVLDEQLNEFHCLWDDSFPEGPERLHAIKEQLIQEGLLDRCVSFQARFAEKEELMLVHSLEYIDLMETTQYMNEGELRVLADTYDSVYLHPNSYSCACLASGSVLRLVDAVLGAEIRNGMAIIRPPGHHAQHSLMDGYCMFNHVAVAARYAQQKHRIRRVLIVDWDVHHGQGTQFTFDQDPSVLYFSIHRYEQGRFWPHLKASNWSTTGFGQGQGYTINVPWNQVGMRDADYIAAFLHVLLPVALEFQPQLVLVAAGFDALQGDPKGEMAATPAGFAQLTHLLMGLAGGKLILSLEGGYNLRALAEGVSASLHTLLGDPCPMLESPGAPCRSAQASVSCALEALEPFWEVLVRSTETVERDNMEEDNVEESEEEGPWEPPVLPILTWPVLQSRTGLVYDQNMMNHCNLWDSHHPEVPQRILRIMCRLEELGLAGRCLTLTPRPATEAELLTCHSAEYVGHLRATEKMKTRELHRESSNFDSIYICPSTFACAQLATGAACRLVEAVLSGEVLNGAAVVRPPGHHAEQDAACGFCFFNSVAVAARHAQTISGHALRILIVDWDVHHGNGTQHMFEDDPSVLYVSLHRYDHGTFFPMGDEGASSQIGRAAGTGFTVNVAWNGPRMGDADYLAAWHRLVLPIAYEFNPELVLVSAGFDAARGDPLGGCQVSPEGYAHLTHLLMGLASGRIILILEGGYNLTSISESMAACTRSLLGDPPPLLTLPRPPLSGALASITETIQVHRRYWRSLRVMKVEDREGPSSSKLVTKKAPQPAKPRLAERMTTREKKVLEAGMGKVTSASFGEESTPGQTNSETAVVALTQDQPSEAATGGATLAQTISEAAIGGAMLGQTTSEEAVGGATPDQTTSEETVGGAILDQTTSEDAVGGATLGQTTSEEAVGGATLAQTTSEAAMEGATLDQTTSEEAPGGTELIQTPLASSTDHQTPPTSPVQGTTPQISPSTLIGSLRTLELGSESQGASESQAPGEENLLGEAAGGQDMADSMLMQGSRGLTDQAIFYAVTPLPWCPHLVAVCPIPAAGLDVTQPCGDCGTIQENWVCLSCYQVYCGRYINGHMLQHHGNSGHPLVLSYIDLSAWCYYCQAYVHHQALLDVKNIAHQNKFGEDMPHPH
UniProt Q13547, whole entry: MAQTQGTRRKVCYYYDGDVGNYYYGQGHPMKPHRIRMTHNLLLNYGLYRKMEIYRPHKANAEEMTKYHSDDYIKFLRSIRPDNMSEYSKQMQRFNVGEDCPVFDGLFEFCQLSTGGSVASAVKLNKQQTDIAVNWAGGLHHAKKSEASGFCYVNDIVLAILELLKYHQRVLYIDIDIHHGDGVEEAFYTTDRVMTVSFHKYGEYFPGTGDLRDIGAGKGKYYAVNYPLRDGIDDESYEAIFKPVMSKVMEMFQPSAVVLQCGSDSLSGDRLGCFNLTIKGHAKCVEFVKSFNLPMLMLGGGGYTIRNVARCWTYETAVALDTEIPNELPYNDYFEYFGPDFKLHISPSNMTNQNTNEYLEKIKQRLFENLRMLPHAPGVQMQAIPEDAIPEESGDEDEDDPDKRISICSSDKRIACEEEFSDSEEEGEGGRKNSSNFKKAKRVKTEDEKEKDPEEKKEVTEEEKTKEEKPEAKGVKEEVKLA

Structures are written as SMILES.

What is called IC50 is the midpoint of a concentration-inhibition curve. `CC1(C)C(=O)N(Cc2ccc(-c3nnc(C(F)F)o3)cn2)C(=O)c2ccc(N3CCC3)cc21` [Compound 28, 6-(azetidine-1-yl)-2-((5-(5-(difluoromethyl)-1,3,4-oxadiazole-2-yl)pyridine-2-yl)methyl)-4,4-dimethylisoquinoline-1,3(2H,4H)-dione]: the IC50 in test [1] amounted to 0.024 µM.

Take `CC1(C)C(=O)N(Cc2ccc(-c3nnc(C(F)F)o3)cn2)C(=O)c2ccc(N3CCN(C4CCCCC4)CC3)cc21` [Compound 46, 6-(4-cyclohexylpiperazine-1-yl)-2-((5-(5-(difluoromethyl)-1,3,4-oxadiazole-2-yl)pyridine-2-yl)methyl)-4,4-dimethylisoquinoline-1,3(2H,4H)-dione]: the IC50 in test [1] is 0.121 µM; in test [2] it was over 10 µM.
